This assay deals with T1, DPP-4 (Macaca mulatta, UniProt A0A075TEP6).
T1 construct: from tissue; host or cells: plasma of rhesus monkeys dosed orally with sitagliptin
As to the kind of experiment: Plasma DPP-4 activity after sitagliptin in NHPs (fluorometric assay). Particulars: 5, 20, 100 mg/kg oral, NHP plasma. The format is in vivo.

Amino acid sequences for entries named in this document (tags omitted). Residues count along the entry.
UniProt A0A075TEP6, 1-766: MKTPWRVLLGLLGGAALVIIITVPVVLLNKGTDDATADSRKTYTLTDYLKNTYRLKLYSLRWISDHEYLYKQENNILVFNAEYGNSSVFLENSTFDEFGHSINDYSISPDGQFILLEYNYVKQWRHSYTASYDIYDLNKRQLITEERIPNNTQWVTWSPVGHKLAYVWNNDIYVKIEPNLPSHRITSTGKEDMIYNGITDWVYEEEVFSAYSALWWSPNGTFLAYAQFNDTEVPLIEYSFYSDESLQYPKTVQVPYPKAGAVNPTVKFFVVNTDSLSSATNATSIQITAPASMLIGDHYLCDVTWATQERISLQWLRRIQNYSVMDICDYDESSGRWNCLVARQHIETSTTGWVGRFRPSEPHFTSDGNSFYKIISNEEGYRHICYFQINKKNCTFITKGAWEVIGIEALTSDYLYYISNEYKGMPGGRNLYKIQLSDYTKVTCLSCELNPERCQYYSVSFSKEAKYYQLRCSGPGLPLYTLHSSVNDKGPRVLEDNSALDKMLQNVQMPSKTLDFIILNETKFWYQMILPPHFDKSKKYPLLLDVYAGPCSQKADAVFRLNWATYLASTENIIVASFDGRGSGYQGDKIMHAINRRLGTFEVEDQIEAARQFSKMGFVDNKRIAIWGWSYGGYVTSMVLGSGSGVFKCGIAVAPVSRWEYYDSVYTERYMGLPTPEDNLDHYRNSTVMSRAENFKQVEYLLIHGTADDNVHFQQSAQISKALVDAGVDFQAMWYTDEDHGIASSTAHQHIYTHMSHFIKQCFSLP

Consider 1 compound from article PMC11335710, “Sitagliptin elevates plasma and CSF incretin levels following oral administration to nonhuman primates: relevance for neurodegenerative disorders” (GeroScience, 2024).

As to `N[C@@H](CC(=O)N1CCn2c(nnc2C(F)(F)F)C1)Cc1cc(F)c(F)cc1F` [sitagliptin], the “Effect on plasma DPP-4 activity” value is “dose- and time-dependent reduction in DPP-4 activity”.
